Data from patent US9447108B2 (SZEGEDI TUDOMÁNYEGYETEM, priority 2013, dated 2016).

Protein sequences, listed by entry. Tags and fused reporters are not part of them.
UniProt P33535, whole entry: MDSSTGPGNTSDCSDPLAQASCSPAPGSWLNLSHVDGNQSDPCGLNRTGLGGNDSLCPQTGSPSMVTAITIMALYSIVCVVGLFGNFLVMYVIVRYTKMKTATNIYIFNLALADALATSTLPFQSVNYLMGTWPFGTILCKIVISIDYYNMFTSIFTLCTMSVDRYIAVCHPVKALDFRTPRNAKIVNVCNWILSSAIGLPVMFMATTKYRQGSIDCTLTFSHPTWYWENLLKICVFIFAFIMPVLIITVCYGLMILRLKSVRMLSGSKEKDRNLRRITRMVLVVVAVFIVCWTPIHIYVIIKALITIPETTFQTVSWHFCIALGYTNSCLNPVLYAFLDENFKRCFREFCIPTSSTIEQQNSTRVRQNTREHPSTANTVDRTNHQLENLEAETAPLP

Biological target: T1, μ-opioid receptors (Rattus norvegicus, UniProt P33535)
T1 construct: A crude membrane fraction was prepared from Wistar rat brains and spinal cords; from tissue; host or cells: Wistar rat brain (without cerebellum), crude membrane fraction
Assay: Receptor binding assay, [3H]DAMGO displacement in rat brain membranes

With C[C@@H](NC(=O)[C@@H](N)Cc1ccc(O)cc1)C(=O)NCC(=O)N(C)[C@@H](Cc1ccccc1)C(=O)NCCO [DAMGO, (2S)-2-[[2-[[(2R)-2-[[(2S)-2-amino-3-(4-hydroxyphenyl)propanoyl]amino]propanoyl]amino]acetyl]-methylamino]-N-(2-hydroxyethyl)-3-phenylpropanamide, reference compound] as the molecule, how does the Ki read?
Its Ki is 1 ± 0.2 nM.
